Data reported in PMC9308496 (Journal of medicinal chemistry, 2021).

Chains of the proteins cited; added tags and fusions are not shown.
UniProt P35372, whole entry: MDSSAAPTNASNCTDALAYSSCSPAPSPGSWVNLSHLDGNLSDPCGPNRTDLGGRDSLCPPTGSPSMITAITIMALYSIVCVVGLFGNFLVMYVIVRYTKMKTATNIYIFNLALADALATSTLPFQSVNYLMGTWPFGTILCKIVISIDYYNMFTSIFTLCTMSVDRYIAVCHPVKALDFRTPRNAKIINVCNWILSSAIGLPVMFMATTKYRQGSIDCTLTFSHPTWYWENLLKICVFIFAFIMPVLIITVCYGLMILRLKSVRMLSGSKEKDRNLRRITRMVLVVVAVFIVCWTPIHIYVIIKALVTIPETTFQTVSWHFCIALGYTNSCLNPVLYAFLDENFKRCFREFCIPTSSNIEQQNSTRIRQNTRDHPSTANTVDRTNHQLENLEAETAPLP
UniProt P35462, whole entry: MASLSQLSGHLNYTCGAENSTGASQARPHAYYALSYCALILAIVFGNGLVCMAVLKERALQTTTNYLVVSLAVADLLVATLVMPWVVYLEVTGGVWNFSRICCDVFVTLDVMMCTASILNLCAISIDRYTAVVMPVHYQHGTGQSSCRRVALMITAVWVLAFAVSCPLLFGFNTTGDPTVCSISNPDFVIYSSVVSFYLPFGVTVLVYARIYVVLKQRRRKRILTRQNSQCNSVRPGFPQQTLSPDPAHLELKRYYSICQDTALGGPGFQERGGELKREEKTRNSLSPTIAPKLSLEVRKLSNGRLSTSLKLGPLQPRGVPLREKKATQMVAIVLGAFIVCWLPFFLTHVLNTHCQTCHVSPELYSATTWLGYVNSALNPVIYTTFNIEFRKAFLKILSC

Tests used:
hMOR = hMOR (Homo sapiens, UniProt P35372); experiment: Radioligand competition binding at hMOR with [3H]-DAMGO
hD3R = hD3R (Homo sapiens, UniProt P35462); experiment: Radioligand competition binding at hD3R with [3H]-N-methylspiperone

## CCc1cccc(N2CCN(CCC(c3cccc(O)c3)c3cccc(O)c3)CC2)c1Cl [compound 55, 3,3’-(3-(4-(2-chloro-3-ethylphenyl)piperazin-1-yl)propane-1,1-diyl)diphenol]
hMOR; relative to 30 and 23
  loss of affinity at MOR, binding Ki fold less than 30 and 23: > 300 fold

## N#CC(CCN1CCN(c2cccc(Cl)c2Cl)CC1)(c1ccccc1)c1ccccc1 [compound 13, 4-(4-(2,3-Dichlorophenyl)piperazin-1-yl)-2,2-diphenylbutanenitrile]
hMOR; relative to analogous amide 23
  reduced MOR binding, fold: ~ 320 fold
hD3R; relative to analogous amide 23
  reduced D3R binding, fold: ~ 13 fold

## O=C(NCCCCN1CC[C@]2(c3cccc(O)c3)CCC[C@H]1[C@H]2O)c1cc2ccccc2[nH]1 [compound 62, N-(4-((1S,5S,9S)-9-Hydroxy-5-(3-hydroxyphenyl)-2-azabicyclo[3.3.1]nonan-2-yl)butyl)-1H-indole-2-carboxamide]
hD3R
  improved D3R affinity, fold: ~ 172 fold
